Our source for the AC50 values is PubChem BioAssay AID687022 (Broad Institute, 2013).

Protein sequences, listed by entry. Tags and fused reporters are not part of them.
UniProt Q9HCT0, whole entry: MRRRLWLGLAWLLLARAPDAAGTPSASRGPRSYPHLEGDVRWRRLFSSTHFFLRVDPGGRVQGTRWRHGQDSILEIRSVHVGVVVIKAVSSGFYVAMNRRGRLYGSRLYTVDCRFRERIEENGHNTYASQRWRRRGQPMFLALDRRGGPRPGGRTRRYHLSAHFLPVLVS

This test addresses Fibroblast growth factor 22 (Homo sapiens) (UniProt Q9HCT0). In words: FGF22 ligand-induced thermal stabilization – biophysical, thermal shift, cherry-pick, FGF22 synaptogenesis inhibitor project, dose response (AID 687022). To be noted: recombinant FGF22 thermal shift, SYPRO orange melting.

In the case of `CN(Cc1cccnc1)C(=O)COc1ccc(Cl)c(Cl)c1.O=[N+]([O-])c1cc([N+](=O)[O-])c(O)c([N+](=O)[O-])c1`, the AC50 was 7.16 µM. The same measure for `CCN(CC)CCCNc1ccccc1[N+](=O)[O-].O=[N+]([O-])c1cc([N+](=O)[O-])c(O)c([N+](=O)[O-])c1`: 9.02 µM.
